Experimental findings from ChEMBL document CHEMBL1132771, “Analogues of SB-203207 as inhibitors of tRNA synthetases” (Bioorg Med Chem Lett, 2000) are described below.

Calls of active or inactive are those of the source. The rule behind the calls is not given here.

For this assay, the system named is Leucine--tRNA ligase (Staphylococcus aureus). The assay can be described thus: Compound (100 uM) was evaluated for its inhibitory activity against Leucyl-tRNA synthetase from staphylococcus aureus WCUH29; no inhibition.

As to `CC[C@H](C)CC(=O)NS(=O)(=O)CC(=O)N[C@]1(C(=O)O)[C@@H]2CN(C)C=C(C(N)=O)[C@@H]2C[C@@H]1O`, the inhibition result is “inactive”.

With `CC[C@H](C)CC(=O)NS(=O)(=O)CC(=O)N[C@@]1(C(=O)O)[C@@H](OC(=O)C[C@@H](C)CC)C[C@H]2C(C(N)=O)=CN(C)C[C@H]21`, the inhibition result is “inactive”.
